Reference: US11547761B1, “Antibody adjuvant conjugates” (The Board of Trustees of the Leland Stanford Junior …, priority 2016, dated 2023)

Columns and labels:
[1] = test system: human APCs (myeloid cells); test: APC-tumor co-culture / myeloid cell stimulation, surface markers by flow cytometry; format: cell-based; conditions: 18 hours of stimulation; compared with the corresponding unconjugated antibody unless the value names another comparator
From the text: (§1) Human antigen presenting cells (APCs) were negatively selected from human peripheral blood mononuclear cells obtained from healthy blood donors (Stanford Blood Center) by density gradient centrifugation using a RosetteSep Human Monocyte Enrichment Cocktail (Stem Cell Technologies) containing monoclonal antibodies against CD2, CD3, CD8, CD19, CD56, CD66b and CD235a. Immature APCs were subsequently purified to >97% purity via negative selection using an EasySep Human Monocyte Enrichment Kit without CD16 depletion containing monoclonal antibodies against CD2, CD3, CD19, CD20, CD56, CD66b, CD123 and CD235a.
Tumor cells were resuspended in PBS with 0.1% fetal bovine serum (FBS) at 1 to 10×10^6 cells/mL. Cells were subsequently incubated with 2 μM CFSE to yield a final concentration of 1 μM. The reaction was ended after 2 minutes via the addition of 10 mL complete medium with 10% FBS and washed once with complete medium. Cells were either fixed in 2% paraformaldehyde and washed three times with PBS or left unfixed prior to freezing the cells in 10% DMSO, 20% FBS and 70% medium.
(§2) 2×10^5 APCs were incubated with or without 6.5×10^5 autologous or allogeneic CFSE-labeled tumor cells in 96-well plates (Corning) containing IMDM medium (Gibco) supplemented with 10% fetal bovine serum, 100 U/mL penicillin, 100 μg/mL streptomycin, 2 mM L-glutamine, sodium pyruvate, non-essential amino acids, 50 μM 2-ME and, where indicated, various concentrations of anti-tumor antibody and the indicated adjuvants. Cells and cell-free supernatants were analyzed after 18 hours via flow cytometry.
as §1, with “[…]” for “CD2, CD3, CD8, CD19, CD56, CD66b”, “[…].” for “CD235a.”, “CD14, CD16, CD40, CD86, CD123,” for “CD2, CD3, CD19, CD20, CD56, CD66b, CD123”
as §2, with “antibody.” for “anti-tumor antibody and the indicated adjuvants.”
(§3) 2×10^5 APCs were incubated with or without 6.5×10^5 allogeneic CFSE-labeled tumor cells in 96-well plates (Corning) containing IMDM medium (Gibco) supplemented with 10% fetal bovine serum, 100 U/mL penicillin, 100 μg/mL streptomycin, 2 mM L-glutamine, sodium pyruvate, non-essential amino acids and, where indicated, various concentrations of unconjugated CD20 antibody, and immunoconjugates of the invention were prepared according to the examples above. Cells and cell-free supernatants were analyzed after 18 hours via flow cytometry or ELISA.

[2] = test system: human APCs (myeloid cells); test: Cytokine secretion from human APCs / myeloid cells (cell free supernatants); format: cell-based
Method: Human APCs were stimulated with 2-fold serial dilutions of Rituximab-SATA-SMCC-Compound 1 (conjugated), Rituximab alone (Ab), Compound 1 alone or Rituximab+Compound 1 (Mixture) in the presence of fixed, CFSE-labeled tumor cells. After 18 hours, cell free supernatants were analyzed for cytokine secretion via cytokine bead arrays; n=3. P-values≤0.05 depicted by *, P-values≤0.01 depicted by **, P-values≤0.001 depicted by ***, P-values≤0.0001 depicted by ****.
as §2, with “Cells and cell-free supernatants were analyzed after 18 hours via flow cytometry.” left out
While the expression of T cell stimulatory molecules such as CD40, CD86 and HLA-DR is necessary for effective T cell activation, APCs also influence the nature of the ensuing immune response through the secretion of cytokines. Therefore, the capacity of immunoconjugates to elicit cytokine secretion in human APCs following stimulation was investigated as described above.
The capacity of these immunoconjugates to elicit cytokine secretion in human APCs following stimulation was investigated as described in Example 3 above.
as §3, with “Cells and cell-free supernatants were analyzed after 18 hours via flow cytometry or ELISA.” left out

[3] = 18 hours of stimulation, compared to equimolar unconjugated antibody unless the value names another comparator
[4] = 36 hours of stimulation, compared to equimolar unconjugated antibody

Cetuximab Boltbody
superior: CD14 downregulation on myeloid cells [1] | CD16 downregulation on myeloid cells [1] | CD40 upregulation on myeloid cells [1] | CD86 upregulation on myeloid cells [1] | CD123 upregulation on myeloid cells [1] | HLA-DR upregulation (expression) on myeloid cells [1] | IL-1β secretion from myeloid cells [2, 3] | TNFα secretion from myeloid cells [2, 3]

Trastuzumab Boltbody
superior: CD14 downregulation on myeloid cells [1] | CD16 downregulation on myeloid cells [1] | CD40 upregulation on myeloid cells [1] | CD86 upregulation on myeloid cells [1] | CD123 upregulation on myeloid cells [1] | HLA-DR upregulation (expression) on myeloid cells [1] | IL-1β secretion from myeloid cells [2, 4] | TNFα secretion from myeloid cells [2, 4]
